Earlier results, collected in patent US10711261B2 (priority 2015, dated 2020).

Test system: ALS
Details: in vivo; cited from earlier work

Structure (SMILES): Nc1nc2ccc(OC(F)(F)F)cc2s1 [riluzole]
- prolongation of median survival: 2-3 months
